Source: PMC8901636, “Preclinical studies of Flonoltinib Maleate, a novel JAK2/FLT3 inhibitor, in treatment of JAK2^V617F-induced myeloproliferative neoplasms” (Blood Cancer Journal, 2022)

Columns and labels:
Experiment in all cases: MTT assay for cell proliferation
Molm-13 = type: cell-based; settings: Homo sapiens, MOLM-13, 72 h, read-out: IC50(μM) ± SD, tumor cell proliferation
Ba/F3-FLT3-ITD^F691 = type: cell-based, Murine; settings: Mus musculus, 72 h, read-out: IC50(μM) ± SD, tumor cell proliferation
Ba/F3-FLT3-ITD = type: cell-based, Murine; settings: Mus musculus, 72 h, read-out: IC50(μM) ± SD, tumor cell proliferation
Ba/F3-FLT3-ITD^D835V = type: cell-based, Murine; settings: Mus musculus, 72 h, read-out: IC50(μM) ± SD, tumor cell proliferation
HEL = type: cell-based; settings: Homo sapiens, 72 h, read-out: IC50(μM) ± SD, tumor cell proliferation

N#CC[C@H](C1CCCC1)n1cc(-c2ncnc3[nH]ccc23)cn1 [Ruxolitinib]
IC50 (Molm-13): > 10 µM | IC50 (Ba/F3-FLT3-ITD^F691): > 10 µM | IC50 (Ba/F3-FLT3-ITD): > 10 µM | IC50 (Ba/F3-FLT3-ITD^D835V): > 10 µM | IC50 (HEL): 1.3 ± 0.89 µM
